Results published in BindingDB's records for doi:10.1021/jm0301033 (Florida A and M University, 2004).

By UniProt entry, the sequences of proteins in these tests, tags left out. Chains listed by the source or under a name are the forms on record and can include a tag or linker.
UniProt P14416, whole entry: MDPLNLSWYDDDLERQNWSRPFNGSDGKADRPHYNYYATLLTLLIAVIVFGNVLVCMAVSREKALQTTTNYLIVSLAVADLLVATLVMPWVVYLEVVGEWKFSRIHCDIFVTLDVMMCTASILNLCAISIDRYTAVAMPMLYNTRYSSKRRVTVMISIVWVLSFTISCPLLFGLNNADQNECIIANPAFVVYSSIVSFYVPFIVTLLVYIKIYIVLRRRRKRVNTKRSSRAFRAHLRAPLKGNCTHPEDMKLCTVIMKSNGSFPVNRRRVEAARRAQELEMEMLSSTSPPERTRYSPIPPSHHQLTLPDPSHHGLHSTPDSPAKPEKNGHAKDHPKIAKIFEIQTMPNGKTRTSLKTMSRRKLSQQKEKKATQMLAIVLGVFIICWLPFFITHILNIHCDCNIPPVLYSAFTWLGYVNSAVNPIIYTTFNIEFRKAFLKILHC
UniProt P21917, whole entry: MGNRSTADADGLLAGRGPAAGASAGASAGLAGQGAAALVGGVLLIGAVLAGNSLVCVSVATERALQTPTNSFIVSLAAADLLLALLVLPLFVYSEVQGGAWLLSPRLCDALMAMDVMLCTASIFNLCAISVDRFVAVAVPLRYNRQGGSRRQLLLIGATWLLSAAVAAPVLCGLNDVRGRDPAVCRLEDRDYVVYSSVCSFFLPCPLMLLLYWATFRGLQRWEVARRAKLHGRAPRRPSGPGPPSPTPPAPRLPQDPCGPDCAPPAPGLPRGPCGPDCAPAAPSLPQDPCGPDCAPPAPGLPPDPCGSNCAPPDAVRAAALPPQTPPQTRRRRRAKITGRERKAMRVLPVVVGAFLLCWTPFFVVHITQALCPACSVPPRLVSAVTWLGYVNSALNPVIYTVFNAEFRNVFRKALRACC
UniProt P35462, as listed by the source: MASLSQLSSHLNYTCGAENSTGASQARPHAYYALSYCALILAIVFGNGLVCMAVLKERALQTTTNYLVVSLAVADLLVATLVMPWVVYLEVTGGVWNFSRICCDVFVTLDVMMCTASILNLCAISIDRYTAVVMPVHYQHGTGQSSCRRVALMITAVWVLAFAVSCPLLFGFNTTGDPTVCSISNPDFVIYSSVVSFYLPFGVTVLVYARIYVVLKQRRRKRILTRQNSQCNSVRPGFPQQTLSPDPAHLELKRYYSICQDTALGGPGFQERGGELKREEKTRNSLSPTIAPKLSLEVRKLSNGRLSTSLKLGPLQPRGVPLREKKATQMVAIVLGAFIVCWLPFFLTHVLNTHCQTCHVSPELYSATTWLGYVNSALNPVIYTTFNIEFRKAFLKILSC

Columns and labels:
[1] = target: D(2) dopamine receptor (Homo sapiens, UniProt P14416)
[2] = target: D(4) dopamine receptor (Homo sapiens, UniProt P21917); experiment: Displacement of [3H]spiperone from human Dopamine receptor D4
[3] = target: D(3) dopamine receptor (Homo sapiens, UniProt P35462); experiment: Displacement of [3H]7-OH-DPAT from human Dopamine receptor D3

SMILES | pKi [1] | pKi [2] | pKi [3]
CN(CCCC(=O)c1ccc(F)cc1)CCCC(O)c1ccc(Cl)cc1 (stereo not drawn) | 7.58 |  | 
O=C(CCCN1CCC(O)(c2ccc(Cl)cc2)C1)c1ccc(F)cc1 (stereo not drawn) [(+)-4-{3-(4-chlorophenyl)-3-hydroxypyrrolidin-1-yl}-1-(4-fluorophenyl)butan-1-one] |  | 7.98 | 6.7
